# Screening data from PubChem BioAssay.
# Rows were chosen to be rich in hits. Some 0.67% of all compounds tested hit in one or more screens of this group.
# gsp agonist – agonists of gsp mutant (McCune-Albright syndrome); Potency, µM (highest dose often 76.9 µM), without a hit: top-dose activation (cAMP increase), actives largely listed as activators; gsp mutant cells, cAMP HTRF, 30 min; AID 624287; 0.13% of 340,000 active; active = well fitted activation curve with a large enough effect; inconclusive = small, poorly fitted or top-dose-only effect, or another doubt; inactive = no such curve, though single readings can be large or run the other way; cell line not stated here;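 also: phosphodiesterase inhibitor Ro 20-1724 added with compounds to block cAMP breakdown; nearly all actives have a fitted effect of over 60% in size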
#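 Cells in DMEM/10% FBS with G418 were pretreated with compounds in DMSO plus […] (300 uM stock) for 30 min at 37C. cAMP was measured by HTRF (cAMP-d2 plus anti-cAMP antibody-K) after 30 min at room temperature.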
# S-ASM inh – human S-ASM enzyme inhibition; placental ASM, HMU-PC fluorogenic substrate, 60 min; Potency, µM (top dose mostly 57.5 µM), for the others: top-dose activity change, negative = inhibition, most hits filed as inhibitors; 0.006% of 340,000 active; AID 504937; active = well fitted inhibition curve with a large enough effect; inconclusive = small, poorly fitted or top-dose-only effect; inactive = no such curve, though single readings can be large or run the other way
#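 Human placenta-derived ASM preincubated with compound 10 min at room temperature, then reacted with 9 uM (final) fluorogenic HMU-PC substrate for 60 min at 37 C. Stop solution raises pH to 10; fluorescence read at Ex 386/Em 447 nm.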
# Rango-impB inh – Rango-importin beta binding inhibition. Q14974. Rango CFP/YFP FRET sensor + importin beta, 45 min. Potency, µM (doses to about 92.2 µM), without a hit: at the top dose inhibition of complex formation. 0.031% of 340,000 active;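 also: 0% = DMSO wells and 100% = buffer wells lacking importin beta; nearly all actives have a fitted effect of over 15% in size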
#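 FRET biosensor (snurportin 1 IBB flanked by EYFP and cerulean), 50 nM, with compound 5 min, then 0.125 microM importin beta in PBS, 1 mM DTT, 0.02% Tween-20, 0.1% BSA. CFP/YFP ratio read after 45 min at room temperature; pre-read flags interference.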
# Rango dissoc inh – inhibition of RanGTP-driven Rango-importin beta dissociation | Biochemical FRET Rango-importin beta, RanGTP-induced dissociation | 0.071% of 340,000 active | Potency, µM (doses to about 46.1 µM), for inactives: at the highest dose activity change, negative = inhibition | O95149+P62826 | AID 540253; also: % of control where 0% means no effect; nearly all actives have a fitted effect of over 45% in size
#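 Quantitative HTS using a FRET biosensor: 0.1 uM Rango, 0.25 uM importin beta, 0.6 uM Ran, 2 mM GTP, 0.2 uM RCC1 final, PBS with DTT, Tween-20 and BSA. Post-read taken 45 min after Ran addition.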
# gsp antagonist – antagonists of gsp mutant (McCune-Albright syndrome) | gsp-mutant cells, cAMP HTRF, 30 min | Potency, µM (doses to about 76.9 µM), for the others: at the top dose activity change, negative = inhibition, hits mostly inhibitors | 0.4% of 340,000 active | AID 624288; calls by dose curve; cell line not stated here;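 also: intracellular cAMP measured with PDE inhibitor Ro 20-1724 present during compound exposure; % is scaled to controls: 0 for no effect and ±100 for the full control effect; nearly all actives have a fitted effect of over 65% in size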
#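 Cells in G418 medium, seeded 16-24 h, 37C; buffer exchange to DPBS + 1 mM CaCl2, 0.5 mM MgCl2, 0.05% BSA; cpds in DMSO + […] (300 uM stock), 30 min 37C; HTRF cAMP detection.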
# Starred values were filed as active, the others as inactive; u = inconclusive; x = no result given; [ ] = another dose, or the depositor's remark. Unless noted, calls follow the shape of the full dose curve. Potency is read from the fitted curve at half-maximal effect.
SMILES,gsp agonist,S-ASM inh,Rango-impB inh,Rango dissoc inh,gsp antagonist
COC(=O)Cn1c(CN2CCN(C(=O)c3ccco3)CC2)nc2c1c(=O)n(C)c(=O)n2C,u,-1.9%,1.9%,10.6%,-4.7%
O=C(Nc1ccc(-c2cn3ccsc3n2)cc1)C1COc2ccccc2O1 (stereo not drawn),-29.0%,-9.7%,0.7%,13.6%,39.8µM*
Cc1cc(SCC(=O)NCC2CCCO2)nc2ccccc12 (stereo not drawn),u,1.6%,36.6µM*,-7.4%,11.0%
O=C(Cn1cnc2c(oc3ccccc32)c1=O)NCc1ccccc1,u,0.9%,-0.3%,-14.7%,10.2%
Cc1cc(SCC(=O)N/N=C/c2ccc(O)cc2O)nc2ccccc12,u,-15.4%,-0.8%,-7.4%,35.5µM*
Cc1cc(C(=O)CSc2nc3ccccc3c(=O)[nH]2)c(C)n1CC1CCCO1 (stereo not drawn),5.6%[15.4 µM],-5.5%,5.1%,-5.6%,35.5µM*
Cc1cc(SCC(=O)NC2CC2)nc2ccccc12,22.0%[15.4 µM],-0.6%,-3.2%,-9.5%,14.9%
O=C(Cn1cnc2c(oc3ccccc32)c1=O)NCC1CCCO1 (stereo not drawn),7.08µM*,3.1%,-0.4%,-3.1%,29.3%
Cc1cc(SCC(=O)N/N=C/c2ccc(O)c(O)c2)nc2ccccc12,-27.7%,-2.8%,-1.5%,20.3%,-24.1%
COc1ccc2c(C)cc(SCC(=O)NC3CCCC3)nc2c1,11.2µM*,0.7%,0.3%,3.7%,14.5%
CC(C)(C)c1oc(C(=O)O)cc1CN1CCOCC1,6.7%[15.4 µM],-0.1%,2.8%,-12.8%,10.5%
CC1Sc2ccc(S(=O)(=O)N3CCC(C(=O)NCC(C)c4ccccc4)CC3)cc2NC1=O (stereo not drawn),u,-8.0%,0.2%,-3.3%,28.2µM*
O=C(O)COc1ccc(/C=N/NC(=O)c2ccc(-c3csc(Nc4ccc(Cl)cc4)n3)cc2)cc1,-1.5%[15.4 µM],82.5%,51.7µM*,-15.5%,-14.5%
CCOc1cc(/C=N/NC(=O)c2ccc(-c3csc(Nc4ccc(C)cc4)n3)cc2)ccc1OCC(=O)O,12.8%,8.8%,1.4%,-1.6%,-9.7%
N#C/C(=C(/O)c1ccc2c(c1)OCO2)c1nc2cc(C(F)(F)F)ccc2s1,-2.9%,13.1%,-1.3%,-9.5%,35.5µM*
Cc1nc2c(C(=O)NCCC(C)C)c[nH]n2c(=O)c1Cc1ccccc1F,-18.6%,0.9%,-3.0%,-6.2%,20µM*
Cc1ccc(C(=O)Nc2ncc([N+](=O)[O-])s2)cc1,7.4%,-3.0%,u,-11.4%,25.1µM*
O=C(Cc1ccc(Cl)cc1)Nc1ncc([N+](=O)[O-])s1,-19.9%[15.4 µM],-0.2%,-5.9%,-4.1%,-19.1%
O=C(COc1ccc(Cl)cc1)Nc1ncc([N+](=O)[O-])s1,2.6%[15.4 µM],-2.0%,0.0%,4.4%,35.5µM*
CC(=O)c1ccc(NC(=O)CN2C(=O)NC3(CCc4ccccc43)C2=O)cc1 (stereo not drawn),0.7%,-1.5%,-3.2%,7.4%,-1.8%

# No new results follow: entries from further up.
SMILES,gsp agonist,S-ASM inh,Rango-impB inh,Rango dissoc inh,gsp antagonist
O=C(Cc1ccc(Cl)cc1)Nc1ncc([N+](=O)[O-])s1,-19.9%[15.4 µM],-0.2%,-5.9%,-4.1%,-19.1%
O=C(COc1ccc(Cl)cc1)Nc1ncc([N+](=O)[O-])s1,2.6%[15.4 µM],-2.0%,0.0%,4.4%,35.5µM*
CC(=O)c1ccc(NC(=O)CN2C(=O)NC3(CCc4ccccc43)C2=O)cc1 (stereo not drawn),0.7%,-1.5%,-3.2%,7.4%,-1.8%

# (list continues)
SMILES,gsp agonist,S-ASM inh,Rango-impB inh,Rango dissoc inh,gsp antagonist
Cc1cc(N2CCN(S(=O)(=O)c3ccc(Cl)cc3)CC2)c2ccccc2n1,-4.4%,-3.2%,-2.5%,-5.1%,50.1µM*
C#CCOCCOCCOCCNc1nc(N2CCN(C(=O)[C@H](CCCCN)n3cc([C@@H](N)[C@H](C)CC)nn3)CC2)nc(N2CCN(C(=O)[C@H](CCCCN)n3cc([C@@H](N)CC(N)=O)nn3)CC2)n1,-21.1%,6.0%,u,-14.5%,5.5%
C#CCOCCOCCOCCNc1nc(N2CCN(C(=O)CCCCCCCCCCNC(=O)[C@H](CCCCN)n3cc(CCO)nn3)CC2)nc(N2CCN(C(=O)CCCCCCCCCCNC(=O)[C@H](CCCN=C(N)N)n3cc(C[C@@H](C)CC)nn3)CC2)n1,-11.8%,-26.7%,65.1µM*,u,-21.6%
C#CCOCCOCCOCCNc1nc(N2CCN(C(=O)[C@H](CCCN=C(N)N)n3cc(C(N)[C@H](C)CC)nn3)CC2)nc(N2CCN(C(=O)[C@H](CCCN=C(N)N)n3cc(C(N)[C@@H](C)CC)nn3)CC2)n1 (stereo partly drawn),x,6.6%,65.1µM*,u,7.3%
C#CCOCCOCCOCCNc1nc(N2CCN(C(=O)[C@H](CCCCN)n3cc([C@@H](N)C(C)CC)nn3)CC2)nc(N2CCN(C(=O)[C@H](CCCCN)n3cc([C@@H](N)CC(C)C)nn3)CC2)n1 (stereo partly drawn),x,0.0%,51.7µM*,1.6%,7.9%
C#CCOCCOCCOCCNc1nc(N2CCOCC2)nc(N2CCN(C(=O)[C@H](CCCN=C(N)N)n3cc(C(N)[C@@H](C)CC)nn3)CC2)n1 (stereo partly drawn),x,4.9%,6.8%,-8.9%,11.9%
O=C(C[C@@H]1C/C=C\CC[C@H](Cc2ccc(F)cc2)C(=O)OC[C@@H]2CCCN2C1=O)N[C@H](CO)Cc1ccccc1,x,-0.7%,-4.4%,0.1%,-8.1%
Cc1ccc(C)n1-c1ccc(-c2ccnc(N)n2)cc1,-4.5%[15.4 µM],93.7%,u,14.6µM*,-1.7%
CNC(=O)C1CC(=O)N(Cc2ccc3c(c2)OCO3)C(=Nc2ccc(OC)cc2)S1 (stereo not drawn),7.5%,-2.6%,-3.0%,11.8%,-5.4%
CC(=O)c1ccc(S(=O)(=O)Nc2cccc(-n3cnnn3)c2)cc1,u,2.2%,-1.7%,8.2%,-20.0%

# Whole records from above. Values in the order: gsp agonist, S-ASM inh, Rango-impB inh, Rango dissoc inh, gsp antagonist
# `C#CCOCCOCCOCCNc1nc(N2CCN(C(=O)[C@H](CCCN=C(N)N)n3cc(C(N)[C@H](C)CC)nn3)CC2)nc(N2CCN(C(=O)[C@H](CCCN=C(N)N)n3cc(C(N)[C@@H](C)CC)nn3)CC2)n1` (stereo partly drawn) reads x, 6.6%, 65.1µM*, u, 7.3%
# `Cc1ccc(C)n1-c1ccc(-c2ccnc(N)n2)cc1` reads -4.5%[15.4 µM], 93.7%, u, 14.6µM*, -1.7%

# Continuation:
SMILES,gsp agonist,S-ASM inh,Rango-impB inh,Rango dissoc inh,gsp antagonist
CC(=O)Nc1ccc(S(=O)(=O)Nc2cccc(-n3cnnn3)c2)cc1,7.94µM*,0.9%,-0.2%,21.1%,8.4%
Cc1cccc(-n2ncc3c2CCCC3NC(=O)C2=CC(=O)CC(C)(C)O2)c1C (stereo not drawn),9.1%[15.4 µM],1.1%,-0.3%,-10.1%,-23.0%
c1ccc2c(NCCc3c[nH]c4ccccc34)c3ccccc3nc2c1,-15.5%,67.4%,u,14.6µM*[inhibitor],-12.8%
COc1ccc(-c2cc(=O)oc3cc(OC(C)C(=O)NCc4ccccn4)ccc23)cc1 (stereo not drawn),x,-10.6%,-0.5%,-19.7%,-24.6%
Cc1ccc(CNC(=O)c2oc3ccc(S(=O)(=O)N4CCOCC4)cc3c2C)cc1,8.4%,-5.8%,2.3%,3.1%,-9.3%
Cc1c(C(=O)Nc2cccc(C(F)(F)F)c2)oc2ccc(S(=O)(=O)N3CCOCC3)cc12,u,22.4µM*,-1.3%,-10.3%,u
Cc1nn(CC(=O)NCCc2ccc(Cl)cc2)c(=O)c2cccn12,-5.2%,-2.4%,4.9%,7.4%,6.1%
COc1cc2c(cc1OC)-c1cc(OCCN3CCOCC3)nc(=O)n1CC2,5.0%,86.6%,u,8.2µM*,11.1%
O=C(CSC1=NCCS1)Nc1ccc(F)cc1,1.1%,-0.7%,0.5%,-13.3%,8.91µM*
CCOc1ccccc1C(=O)Nc1ccc(S(=O)(=O)Nc2nccc(C)n2)cc1,6.31µM*,8.9%,u,-11.8%,29.4%
